Literature values in paper PMC11532403, “First-in-human, phase 1 dose-escalation and dose-expansion study of a RET inhibitor SY-5007 in patients with advanced RET-altered solid tumors” (Signal Transduction and Targeted Therapy, 2024).

Test system: RET-altered / thyroid / lung tumors
Settings: DECISION, RAI-refractory DTC ref 80; cited from earlier work

CNC(=O)c1cc(Oc2ccc(NC(=O)Nc3ccc(Cl)c(C(F)(F)F)c3)cc2)ccn1 [sorafenib]
Median PFS: 10.8 months
